Reference: patent US9422396B2, “Biodegradable elastomers prepared by the condensation of an organic di-, tri- or tetra-carboxylic acid and an organic diol” (QATAR UNIVERSITY, priority 2007, dated 2016)

Experiment: Sol content and degree of swelling of elastomer discs in dichloromethane
Format: physicochemical

## poly(1,10 decane diol-co-tricarballylate) [PDTC]
  The sol content (S) %: 5.95 ± 1.69%
